Molecular target: HKU1-3CL^pro (Human coronavirus HKU1 (isolate N1) (HCoV-HKU1), UniProt P0C6X2)
Assay: biochemical

Sequences of proteins named here, by UniProt entry; tags and fusion partners are left off. Residues count along the entry.
UniProt P0C6X2, 3335-3637 limits assumed: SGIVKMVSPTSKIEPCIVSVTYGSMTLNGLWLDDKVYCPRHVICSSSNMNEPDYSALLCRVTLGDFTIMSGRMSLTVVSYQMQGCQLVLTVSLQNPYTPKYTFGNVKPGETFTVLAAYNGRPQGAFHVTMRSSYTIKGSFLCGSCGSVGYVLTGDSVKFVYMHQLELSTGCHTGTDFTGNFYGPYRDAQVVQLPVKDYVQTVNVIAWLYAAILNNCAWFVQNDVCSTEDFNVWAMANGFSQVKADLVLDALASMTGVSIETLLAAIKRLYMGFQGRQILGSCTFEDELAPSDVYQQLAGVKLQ

CC(C)(C)NC(=O)C(c1cccnc1)N(C(=O)c1c[nH]cn1)c1ccc(C(C)(C)C)cc1 (stereo not shown) [Compound 3P, reference compound]
IC50: 8.4 ± 0.7 µM
